{"source": "PubChem BioAssay AID624296", "about": "(National Center for Advancing Translational Sciences (NCATS), 2012)", "note": "The list shows a part of the results, in another mix than the full data. Inconclusive results are not listed. Active and inactive are the calls of the source. The call rests on the fitted dose curve; in most records, active means well fitted activation curve with a large enough effect; inconclusive means small, poorly fitted or top-dose-only effect; inactive means no such curve, though single readings can be large or run the other way."}
{"test": "A quantitative high throughput screen for small molecules that induce DNA re-replication in MCF 10a normal breast cells; further: % of control where 0% means no effect; nearly all actives have a fitted effect of over 50% in size.", "conditions": "MCF 10A DNA re-replication, Hoechst nuclear intensity, 48 h; series mostly up to 46.1 µM; activity, positive = re-replication: at the top concentration"}
{"smiles": "CC(C)(C)C(=O)NC(Sc1ccccc1)C(Cl)(Cl)Cl", "note": "(stereo not given)", "activity, positive = re-replication": "inactive: -0.15%"}
{"smiles": "O=P1(Nc2nc3ccc(Cl)cc3s2)COc2ccccc2O1", "note": "(stereo not given)", "activity, positive = re-replication": "inactive: 11.6%"}
{"smiles": "CCOc1ccc(C2=NCC(CBr)S2)cc1", "note": "(stereo not given)", "activity, positive = re-replication": "inactive: -3.62%"}
{"smiles": "CC(=O)Nc1ccc([As](=O)(O)O)c(O)c1", "activity, positive = re-replication": "inactive: -1.73%"}
{"smiles": "CC(=O)Nc1ccc(Oc2c([N+](=O)[O-])cc([N+](=O)[O-])cc2[N+](=O)[O-])cc1", "activity, positive = re-replication": "inactive: 1.33%"}
{"smiles": "COC(=O)C1(C)COP(=O)(NCc2ccccc2)OC1", "note": "(stereo not given)", "activity, positive = re-replication": "inactive: -0.184%"}
{"smiles": "Cc1ccccc1CN(C)C(=O)COC(=O)C(O)(c1ccccc1)c1ccccc1", "activity, positive = re-replication": "inactive: 3.83%"}
{"smiles": "C[C@H]1OP(=O)(Oc2ccccc2)C[C@@H]2O[C@@H]21", "note": "(stereo not given in full)", "activity, positive = re-replication": "inactive: 4.36%"}
{"smiles": "C[C@@H]1C=CCP(=O)(Oc2ccccc2)O1", "note": "(stereo not given in full)", "activity, positive = re-replication": "inactive: -0.764%"}
{"smiles": "O=P1(N(CCCl)CCCl)OCCC2CCCCN21", "note": "(stereo not given)", "activity, positive = re-replication": "inactive: -3.6%"}
{"smiles": "O=C(NC1CCS(=O)(=O)C1)NP(=S)(Oc1ccccc1)Oc1ccccc1", "note": "(stereo not given)", "activity, positive = re-replication": "inactive: 2.97%"}
{"smiles": "CCNC(=S)/N=C(\\N)N[N+](=O)[O-]", "activity, positive = re-replication": "inactive: 0.384%"}
{"smiles": "c1ccc(-c2nn[nH]n2)c(-c2nn[nH]n2)c1", "activity, positive = re-replication": "inactive: -15.7%"}
{"smiles": "Cc1ccc(NP(=O)(Oc2cccc(C)c2)Oc2cccc(C)c2)nc1", "activity, positive = re-replication": "inactive: 0.0433%"}
{"smiles": "CC(NC(=O)COC(=O)C(O)(c1ccccc1)c1ccccc1)c1ccccc1", "note": "(stereo not given)", "activity, positive = re-replication": "inactive: -11.4%"}
{"smiles": "COC(=O)c1cc2c(s1)N=C(c1ccccc1)N(C)P2(=O)N1CCOCC1", "note": "(stereo not given)", "activity, positive = re-replication": "inactive: -4.04%"}
{"smiles": "CC(=O)NC(SC(=S)N(CC(C)C)CC(C)C)C(Cl)(Cl)Cl", "note": "(stereo not given)", "activity, positive = re-replication": "inactive: 4.49%"}
{"smiles": "Cc1ccc(OP(=O)(Nc2ccccn2)Oc2ccc(C)cc2)cc1", "activity, positive = re-replication": "inactive: 18.2%"}
{"smiles": "O=C(OC1CN2CCC1CC2)c1ccccc1", "note": "(stereo not given)", "Potency": "inactive"}
{"smiles": "CCC(=O)N1C2C3N(C(=O)CC)C1C1N(C(=O)CC)C(C(N1C(=O)CC)N3C(=O)CC)N2C(=O)CC", "activity, positive = re-replication": "inactive: 5.83%"}
